Earlier results as cited in US20110117200A1, “RASAGILINE MESYLATE PARTICLES AND PROCESS FOR THE PREPARATION THEREOF” (ACTAVIS GROUP PTC EHF, priority 2008, published 2011).

Amino acid sequences for entries named in this document (tags omitted).
UniProt P27338, whole entry, species assumed: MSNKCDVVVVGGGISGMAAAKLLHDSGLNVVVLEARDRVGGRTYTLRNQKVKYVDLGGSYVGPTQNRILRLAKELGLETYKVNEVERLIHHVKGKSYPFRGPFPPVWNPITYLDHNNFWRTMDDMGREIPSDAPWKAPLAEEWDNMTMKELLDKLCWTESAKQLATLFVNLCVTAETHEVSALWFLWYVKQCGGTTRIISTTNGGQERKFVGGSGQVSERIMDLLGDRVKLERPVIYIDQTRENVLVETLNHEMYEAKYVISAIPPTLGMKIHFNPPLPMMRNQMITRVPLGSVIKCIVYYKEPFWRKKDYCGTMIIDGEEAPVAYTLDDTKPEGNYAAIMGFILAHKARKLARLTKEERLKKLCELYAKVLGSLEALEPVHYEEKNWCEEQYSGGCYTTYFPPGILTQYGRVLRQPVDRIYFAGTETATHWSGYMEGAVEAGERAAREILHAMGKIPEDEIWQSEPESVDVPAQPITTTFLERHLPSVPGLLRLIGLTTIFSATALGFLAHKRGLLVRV

Biological target: B-form of the enzyme monoamine oxidase (MAO-B) (Homo sapiens, UniProt P27338)
Settings: qualitative statement in the background; cited from earlier work

C#CCN[C@@H]1CCc2ccccc21.CS(=O)(=O)O [Rasagiline mesylate, rasagiline mesylate]
Inhibition of MAO-B: selective and potent irreversible inhibitor
